Data as given in BindingDB's records for doi:10.1021/jm101621u (University of Utah, 2011).

Chains of the proteins cited; added tags and fusions are not shown.
UniProt Q8NER1, whole entry: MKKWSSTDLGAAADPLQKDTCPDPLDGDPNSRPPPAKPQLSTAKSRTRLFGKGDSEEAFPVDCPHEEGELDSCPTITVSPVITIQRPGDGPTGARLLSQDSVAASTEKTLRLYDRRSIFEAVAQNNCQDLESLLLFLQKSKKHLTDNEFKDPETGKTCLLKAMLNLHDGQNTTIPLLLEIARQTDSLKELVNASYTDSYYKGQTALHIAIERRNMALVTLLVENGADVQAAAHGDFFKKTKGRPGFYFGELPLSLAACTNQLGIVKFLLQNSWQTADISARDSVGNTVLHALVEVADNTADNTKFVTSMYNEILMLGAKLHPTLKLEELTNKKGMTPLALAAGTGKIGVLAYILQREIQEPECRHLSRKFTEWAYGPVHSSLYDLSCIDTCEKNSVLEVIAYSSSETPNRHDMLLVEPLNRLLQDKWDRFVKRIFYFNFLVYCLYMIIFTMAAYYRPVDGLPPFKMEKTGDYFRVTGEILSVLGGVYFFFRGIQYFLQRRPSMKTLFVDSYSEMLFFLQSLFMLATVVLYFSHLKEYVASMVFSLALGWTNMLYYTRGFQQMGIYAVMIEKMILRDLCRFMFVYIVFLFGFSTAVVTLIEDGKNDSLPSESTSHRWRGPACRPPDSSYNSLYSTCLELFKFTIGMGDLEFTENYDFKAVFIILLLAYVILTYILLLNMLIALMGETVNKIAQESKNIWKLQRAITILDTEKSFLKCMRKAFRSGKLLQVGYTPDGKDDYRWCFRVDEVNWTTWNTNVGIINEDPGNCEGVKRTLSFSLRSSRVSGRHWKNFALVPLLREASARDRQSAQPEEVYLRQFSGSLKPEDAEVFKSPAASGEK

Target: Transient receptor potential cation channel subfamily V member 1 (Homo sapiens, UniProt Q8NER1)
Assay: Antagonist activity at human TRPV1 expressed in HEK293 cell assessed as inhibition of capsaicin-induced calcium flux by fluorometric analysis
Outline: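 Human wild-type TRPV1 transiently transfected into HEK-293 cells and cultured 48 h, then loaded with Fluo-4 at 37°C. […] Ca2+ fluorescence monitored 1 min; rate and ΔFmax expressed relative to capsaicin-only cells; n=3.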

C/C=C(\NC(=O)[C@H](C)NC(=O)[C@@H](NC(=O)[C@H](NC(=O)[C@H](Cc1ccccc1)NC(=O)[C@@H](CC(C)C)NC(=O)[C@@H](Cc1ccccc1)NC(=O)CC)[C@@H](C)O)C(C)C)C(=O)O [Nobilamide B]
IC50: 275 µM
